{
  "source": "paper PMC8997437",
  "about": "“Apelin Resistance Contributes to Muscle Loss during Cancer Cachexia in Mice” (Cancers, 2022)",
  "key": {"[1]": {"settings": "[Pyr1]-apelin 13 (L version), 0.5 µg/µL in mouse serum, 37 °C, samples extracted with acetonitrile/3% TFA, MALDI-TOF read-out, compared with time 0"}, "APJ": {"biological_target": "T1, APJ (Mus musculus, UniProt Q9WV08)", "T1 construct": "we transfected myoblasts with a reporter plasmid with the gene for FLuc under the control of cAMP-responsive elements (CRE); endogenous in cells; host or cells: myoblasts (C2C12 according to the luciferase-assay methods)", "T1 sequence (Q9WV08 1-377)": "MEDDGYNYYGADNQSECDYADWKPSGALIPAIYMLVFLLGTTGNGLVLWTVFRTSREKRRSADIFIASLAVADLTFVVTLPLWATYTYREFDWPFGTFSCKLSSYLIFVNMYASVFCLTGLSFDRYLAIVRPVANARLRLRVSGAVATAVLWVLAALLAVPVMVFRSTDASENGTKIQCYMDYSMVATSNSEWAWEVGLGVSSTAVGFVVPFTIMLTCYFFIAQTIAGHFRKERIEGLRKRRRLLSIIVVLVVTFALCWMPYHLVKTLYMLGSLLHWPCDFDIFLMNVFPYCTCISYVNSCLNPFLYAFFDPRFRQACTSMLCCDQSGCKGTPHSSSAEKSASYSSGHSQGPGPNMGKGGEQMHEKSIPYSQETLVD", "experiment": "CRE-luciferase (cAMP) reporter assay in transfected myoblasts, apelin peptides", "format": "cell-based", "settings": "1 μM peptide for 5 h, with vehicle or 50 μM forskolin, n = 6"}},
  "data": [
    {"substance": "[Pyr1]-Apelin 13 [L-apelin 13]", "values": [
      {"measurement": "time at which the apelin 13 peaks disappeared in mouse serum (turnover)", "setting": "[1]", "value": 3, "unit": "h"},
      {"measurement": "reduction of cAMP and forskolin-induced cAMP (FLuc/RLuc, CRE reporter)", "setting": "APJ", "value": "about 25%"}
    ]}
  ]
}
